From the NIST ThermoML archive (doi:10.1016/j.fluid.2015.05.002)

Conditions: Liquid; for vapor or sublimation pressure: Closed cell (Static) method

For `CCCCOCCCC` [dibutyl ether], the mass density (298 K, 101.33 kPa, Vibrating tube method) was 763.8 ± 0.2 kg/m3, the “vapor or sublimation pressure” value (430.15 K) was 159 ± 1 kPa and the “vapor or sublimation pressure” value (435.15 K) was 178 ± 1 kPa. For the same molecule, the “vapor or sublimation pressure” value (440.15 K) was 200 ± 1 kPa, the “vapor or sublimation pressure” value (445.15 K) was 224 ± 1 kPa and the “vapor or sublimation pressure” value (450.15 K) was 251 ± 1 kPa. For the same molecule, the “vapor or sublimation pressure” value (453.15 K) was 267 ± 1 kPa, the “vapor or sublimation pressure” value (458.15 K) was 297 ± 1 kPa and the “vapor or sublimation pressure” value (463.15 K) was 329 ± 1 kPa. The “vapor or sublimation pressure” value (468.15 K) was 363 ± 1 kPa, the “vapor or sublimation pressure” value (473.15 K) was 401 ± 1 kPa and the “vapor or sublimation pressure” value (483.15 K) was 486 ± 1 kPa. For the same molecule, the “vapor or sublimation pressure” value (493.15 K) was 584 ± 1 kPa, the “vapor or sublimation pressure” value (503.15 K) was 696 ± 2 kPa and the “vapor or sublimation pressure” value (508.15 K) was 758 ± 2 kPa.

Numbers after ± are expanded uncertainties.
